Earlier results on one substance are cited in US9517934B2, “Process for the generation of chlorine dioxide” (The United States of America as Represented by the …, priority 2013, dated 2016).

The conditions of this data set: vide Horváth et al.; cited from earlier work.

chlorous acid: the “acid dissociation constant Ka” value was “≈ 1×10^−2 M” and the “pKa (−log Ka)” value was “≈ 2”.
